Results published in ChEMBL document CHEMBL2380202, “Identification of substituted 2-thio-6-oxo-1,6-dihydropyrimidines as inhibitors of human lactate dehydrogenase” (Bioorg Med Chem Lett, 2013).

Biological target: L-lactate dehydrogenase A chain (Homo sapiens, UniProt P00338)
Experiment: Inhibition of human recombinant carboxy-terminal his-tagged LDHA (1 to 331) expressed in Escherichia coli using pyruvate as substrate after 10 mins by UV endpoint analysis

IC50: 57.2 µM
Compound: NC(=O)C(=O)O [OXAMATE]
